Laboratory results from article PMC12427844, “Uncovering Novel DPP-IV Inhibitory Peptides from Amphibian (Lithobates catesbeiana) Skin via Peptidomics and Molecular Simulation” (Foods, 2025).
pIC50: −log10 of the molar value.

The chains behind the UniProt entries cited, without tags or fusion partners.
UniProt P27487, whole entry, species assumed: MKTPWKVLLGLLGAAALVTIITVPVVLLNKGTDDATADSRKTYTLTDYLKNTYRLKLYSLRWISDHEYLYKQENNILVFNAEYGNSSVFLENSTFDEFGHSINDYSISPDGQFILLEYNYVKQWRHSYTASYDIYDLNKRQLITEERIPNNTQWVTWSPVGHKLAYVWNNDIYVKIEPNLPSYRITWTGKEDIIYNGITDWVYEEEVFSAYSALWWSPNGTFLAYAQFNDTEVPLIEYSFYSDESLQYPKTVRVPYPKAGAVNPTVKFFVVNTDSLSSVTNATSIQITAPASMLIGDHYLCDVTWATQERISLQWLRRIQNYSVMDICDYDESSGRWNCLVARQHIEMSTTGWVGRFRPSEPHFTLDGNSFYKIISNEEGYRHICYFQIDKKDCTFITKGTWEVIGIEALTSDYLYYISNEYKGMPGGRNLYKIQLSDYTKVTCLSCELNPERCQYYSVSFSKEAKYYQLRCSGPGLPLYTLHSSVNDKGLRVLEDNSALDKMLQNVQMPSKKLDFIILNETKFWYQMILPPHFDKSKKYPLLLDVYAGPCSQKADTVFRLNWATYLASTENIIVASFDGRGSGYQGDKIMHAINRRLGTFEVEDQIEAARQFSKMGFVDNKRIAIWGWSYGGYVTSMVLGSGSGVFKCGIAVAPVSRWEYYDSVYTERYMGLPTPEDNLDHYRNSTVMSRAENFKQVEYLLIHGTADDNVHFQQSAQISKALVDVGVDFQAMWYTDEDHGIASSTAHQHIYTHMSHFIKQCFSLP

Molecular target: DPP-IV (Homo sapiens, UniProt P27487)
Experiment: DPP-IV inhibition assay (Gly-Pro p-nitroanilide substrate, absorbance 405 nm)
Assay type: biochemical
Settings: positive control
Description: The inhibitory effect of LSGHs on DPP-IV enzyme activity was determined according to the method described by Zheng et al.. Briefly, 80 μL of 0.5 mM p-nitroanilide substrate solution was mixed with 80 μL of peptide solution (final concentration: 0.8 mg/mL). The mixture was incubated at 37 °C for 10 min, followed by the addition of 40 μL of DPP-IV enzyme solution (0.8 U/μL). The absorbance at 405 nm was monitored every 2 min for 90 min. All reaction components were prepared in Tris-HCl buffer (100 mM, pH 8.0). A control reaction was prepared by replacing the peptide solution with Tris-HCl buffer. The experiment was repeated three times. The DPP-IV inhibition rate was calculated using the following formula:
DPP-IV inhibition rate (%) = (Slope of control group—Slope of sample group) × 100/Slope of control group.Slope = (A2 − A1)/(T2 − T1). where Slope represents the slope of the change in absorbance values A1 and A2 at two time points T1 and T2 within the linear range.

pIC50: 4.80
Compound: CC[C@H](C)[C@H](N)C(=O)N1CCC[C@H]1C(=O)N[C@H](C(=O)O)[C@@H](C)CC [IPI]
